From ChEMBL document CHEMBL6083264, “Superacid-Synthesized Fluorinated Diamines Act as Selective hCA IV Inhibitors” (J Med Chem, 2024) come the findings set out here.

A short description of assay [1]: Selectivity ratio of IC50 for CA-II (unknown origin) to IC50 for human CA-IV.
Assay [2] can be described thus: Selectivity ratio of IC50 for CA-I (unknown origin) to IC50 for human CA-IV.
The nature of assay [3]: Selectivity ratio of IC50 for CA-XII (unknown origin) to IC50 for human CA-IV.
Assay [4] is described as follows: Selectivity ratio of IC50 for CA-IX (unknown origin) to IC50 for human CA-IV.

`CC(F)CNS(=O)(=O)c1ccc([N+](=O)[O-])cc1` (centres undefined): the Ratio IC50 in assay [1] came to 34; in assay [2], 63; in assay [3], 59; in assay [4], 31.
